Literature values in patent US8426398B2 (Emory University, priority 2009, dated 2013).

System: KB-31 folate receptor-positive tumors
Conditions: mouse, in vivo; cited from earlier work

^18F-FDG
uptake in tumors (PET): negligible
